Molecular target: GPR35 (Homo sapiens, UniProt Q9HC97)
Assay: DMR agonism assay in native HT-29 cells (Epic optical biosensor)
Conditions: read-out: Potency EC50, DMR

By UniProt entry, the sequences of proteins in these tests, tags left out. Where a name states a change or a piece, a line headed by the entry shows the natural chain unless it says otherwise.
UniProt Q9HC97: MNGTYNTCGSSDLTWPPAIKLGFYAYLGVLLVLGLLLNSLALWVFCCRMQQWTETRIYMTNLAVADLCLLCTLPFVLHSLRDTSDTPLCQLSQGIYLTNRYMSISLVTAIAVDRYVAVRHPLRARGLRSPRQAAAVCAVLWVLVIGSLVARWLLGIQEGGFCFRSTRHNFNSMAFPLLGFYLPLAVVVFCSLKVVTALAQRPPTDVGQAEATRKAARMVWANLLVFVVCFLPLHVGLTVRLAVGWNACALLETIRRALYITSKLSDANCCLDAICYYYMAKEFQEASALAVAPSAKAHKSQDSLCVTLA

Which EC50 does the source give for `O=[N+]([O-])c1ccc(O)c([N+](=O)[O-])c1` [2,4-DNP, 2,4-dinitrophenol] here?
The EC50 was 31.1 ± 2.9 µM.

— patent US20130316985A1, “GPR35 Ligands And Uses Thereof” (CORNING INCORPORATED, priority 2012, published 2013)
